Data: patent US8722706B2, “Two phase bioactive formulations of bis-quaternary pyridinium oxime sulfonate salts” (dated 2014)

Test: Stability of solid MMB4-DMS at 40° C., generation of 4-PA

1,1′-methylenebis[4-[(hydroxyimino)methyl]-pyridinium]dimethanesulfonate
4-Pyridine-aldoxime (% by wt.) (0 months): <0.04 % by wt. | 4-Pyridine-aldoxime (% by wt.) (1 month): <0.04 % by wt. | 4-Pyridine-aldoxime (% by wt.) (2 months): <0.04 % by wt. | 4-Pyridine-aldoxime (% by wt.) (3 months): <0.04 % by wt. | 4-Pyridine-aldoxime (% by wt.) (4 months): <0.04 % by wt. | 4-Pyridine-aldoxime (% by wt.) (6 months): <0.04 % by wt. | 4-Pyridine-aldoxime (% by wt.) (9 months): <0.04 % by wt. | 4-Pyridine-aldoxime (% by wt.) (12 months): <0.04 % by wt. | level of 4-PA (over a one year time period): ≤ 0.04 % by weight
